## scFv variants of Ab-14 (light chain) against a SARS-CoV-2 spike peptide

Values reported by Li et al. 2023, doi:10.1038/s41467-023-39022-2 (FLAb copy).

The target is the same throughout: PDVDLGDISGINAS, from the HR2 region of SARS-CoV-2 spike.

Ab-14 is the parent antibody, in scFv form: VH, then a 15-residue (Gly4Ser)3 linker, then VL. The heavy chain is unchanged in all variants.
VH: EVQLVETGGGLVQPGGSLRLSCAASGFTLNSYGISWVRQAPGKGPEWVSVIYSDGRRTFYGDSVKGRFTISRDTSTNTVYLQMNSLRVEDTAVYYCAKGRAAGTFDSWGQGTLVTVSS
VL: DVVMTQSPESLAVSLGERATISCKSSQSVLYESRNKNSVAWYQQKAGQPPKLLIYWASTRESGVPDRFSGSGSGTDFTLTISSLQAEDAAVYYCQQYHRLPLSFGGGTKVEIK

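The variants were designed computationally from a first round of random CDR variants and then made and measured. Several design methods are mixed in this list. In AlphaSeq, yeast of one mating type display the scFv and yeast of the other type display the target. Mating (16 h, 30 °C) was followed by selection of diploids and sequencing of their barcodes. A regression on co-assayed BCL2-family reference pairs converts the normalised counts of each replicate to an apparent Kd. Each pool was mated in six replicate cultures.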

Positions count from residue 1 of the parent VL; S25L puts L in place of S.
This list holds designs with at most six substitutions.
Affinities are written as log10 Kd with Kd in nM; a lower number is a better binder.
The mean shown is taken over the replicates in which the pair was detected.
A pair that was not seen in any replicate is written "nd"; this usually means weak binding, but a binder can also be missed.

The variant S25L/V29N/W56N/T59Q/E61L gave -0.39 (6 of 6 replicates).
The variant S25L/L30E/W56E gave -0.21 (6 of 6 replicates).
The variant S25Q/S28L/W56K/Y97I/L100M gave nd (0 of 6 replicates).
The variant L30R/Y31R/N35E/S38D gave 3.26 (2 of 6 replicates).
The variant S25V/V29D/W56D gave -0.14 (6 of 6 replicates).
The variant H98V/S103A gave 0.96 (1 of 6 replicates).
The variant S28V/V29E/W56G gave -0.14 (6 of 6 replicates).
The variant S25A/E32M/E61Y/H98Y/R99T gave 1.91 (1 of 6 replicates).
The variant S25V/S26L/L30M/W56H/S62D/R99Q gave 0.80 (6 of 6 replicates).
The variant V29Y/R34G/W56N gave -0.16 (6 of 6 replicates).
The variant L30Y/K36R/T59A/R99Q gave nd (0 of 6 replicates).
The variant S25I/E32S/V39L/W56E gave -0.45 (6 of 6 replicates).
The variant S25W/Y31M/R34T/K36P/W56K gave 0.49 (6 of 6 replicates).
The variant S26L/Q27E/R34N/W56H/S62D gave 0.62 (6 of 6 replicates).
The variant S25I/Q27P/W56G gave -0.16 (6 of 6 replicates).
The variant S25L/V29A/W56G gave 0.90 (6 of 6 replicates).
The variant S25L/V29W/W56H/A57G gave 0.29 (6 of 6 replicates).
The variant S25V/S26P/V29H/W56Q gave 0.53 (6 of 6 replicates).
The variant S25V/V29M/Y31G/K36F/W56S/S62N gave 0.42 (6 of 6 replicates).
The variant W56N/H98Y gave 0.81 (6 of 6 replicates).
The variant S25L/V29F/W56N gave -0.37 (6 of 6 replicates).
The variant S25L/S26Q/W56H/T59Q gave 0.09 (6 of 6 replicates).
The variant K24E/V29Q/S38W/H98M gave 1.54 (1 of 6 replicates).
The variant S26G/S28G/L30D/W56R gave 0.60 (6 of 6 replicates).
The variant K24H/S25L/Y31M/S62Q/Q95S/H98E gave 1.55 (6 of 6 replicates).
The variant S26L/W56H/S62D/R99S gave 1.22 (6 of 6 replicates).
The variant S25L/S26Q/V29W/W56N/S62W gave 0.05 (6 of 6 replicates).
The variant S25M/S33N/W56N gave -0.27 (6 of 6 replicates).
The variant S26M/Y31G/K36C/W56S/S62L gave 0.80 (6 of 6 replicates).
The variant V29Y/K36F/W56G gave 0.24 (6 of 6 replicates).
The variant S25V/R99Q/L100D gave 2.29 (2 of 6 replicates).
The variant E32A/S62N gave 2.04 (1 of 6 replicates).
The variant L30Q/Y31Q/R34T gave 2.09 (6 of 6 replicates).
The variant V29A gave 2.04 (3 of 6 replicates).
The variant S25L/S26Q/V29Y/L30E/W56N gave -0.34 (6 of 6 replicates).
The variant K24S/Q27S/W56S/S103L gave 0.58 (6 of 6 replicates).
The variant S25V/S26D/V29D/W56Q/A57G/S103H gave 0.10 (6 of 6 replicates).
The variant S25L/S26M/V29W/W56H/T59Q gave 0.20 (6 of 6 replicates).
The variant S25F/V29F/N35W/W56G/T59Q gave 0.01 (6 of 6 replicates).

The last 4 entries again:

Variant K24S/Q27S/W56S/S103L gave 0.58 (6 of 6 replicates).
Variant S25V/S26D/V29D/W56Q/A57G/S103H gave 0.10 (6 of 6 replicates).
Variant S25L/S26M/V29W/W56H/T59Q gave 0.20 (6 of 6 replicates).
Variant S25F/V29F/N35W/W56G/T59Q gave 0.01 (6 of 6 replicates).

A sequence measured in both rounds can read differently, since the two assays cover different ranges.
Empty control strains, which show no peptide, gave a signal in 4% of pairings with all light chain designs; the median was 2.64 and 95% of these signals were weaker than 1.59. No background was subtracted.
The authors averaged sequences with at least three values out of six and counted those with two or fewer as poor binders.